Results taken from ChEMBL document CHEMBL1145385, “Functional differences in epigenetic modulators-superiority of mercaptoacetamide-based histone deacetylase inhibitors relative to hydroxamates in cortical neuron neuroprotection studies” (J Med Chem, 2007).

Sequences of proteins named here, by UniProt entry; tags and fusion partners are left off.
UniProt Q92769, whole entry: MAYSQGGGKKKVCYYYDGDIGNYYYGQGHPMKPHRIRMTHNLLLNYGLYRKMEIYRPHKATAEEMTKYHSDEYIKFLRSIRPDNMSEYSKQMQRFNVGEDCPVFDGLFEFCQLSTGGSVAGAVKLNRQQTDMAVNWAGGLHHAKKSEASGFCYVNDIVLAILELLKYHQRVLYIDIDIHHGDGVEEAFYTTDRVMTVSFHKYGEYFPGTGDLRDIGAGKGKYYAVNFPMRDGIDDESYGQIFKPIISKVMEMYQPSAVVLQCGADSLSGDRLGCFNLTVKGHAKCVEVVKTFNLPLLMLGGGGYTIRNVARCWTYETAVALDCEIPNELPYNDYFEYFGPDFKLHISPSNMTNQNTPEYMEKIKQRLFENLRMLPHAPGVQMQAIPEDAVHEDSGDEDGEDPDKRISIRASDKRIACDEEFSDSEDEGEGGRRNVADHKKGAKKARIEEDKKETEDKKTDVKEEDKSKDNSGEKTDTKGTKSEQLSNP

Biological target: Histone deacetylase 2 (Homo sapiens, UniProt Q92769)
Assay: Inhibition of His-tagged HDAC2 expressed in Sf9 cells by fluorescence-based assay

CN(C)c1ccc(C(=O)NCCCCCNC(=O)CS)cc1
IC50: 6.46 µM
